From patent US20260384394A1, “(HETERO)ARYL-CARBONYL-HETEROBICYCLIC COMPOUNDS AS INHIBITORS OF PMS2 FOR CANCER AND DEGENERATIVE ILLNESSES” (published 2026)

The chains behind the UniProt entries cited, without tags or fusion partners. Residues count along the entry.
UniProt P54278, 1-365 limits assumed: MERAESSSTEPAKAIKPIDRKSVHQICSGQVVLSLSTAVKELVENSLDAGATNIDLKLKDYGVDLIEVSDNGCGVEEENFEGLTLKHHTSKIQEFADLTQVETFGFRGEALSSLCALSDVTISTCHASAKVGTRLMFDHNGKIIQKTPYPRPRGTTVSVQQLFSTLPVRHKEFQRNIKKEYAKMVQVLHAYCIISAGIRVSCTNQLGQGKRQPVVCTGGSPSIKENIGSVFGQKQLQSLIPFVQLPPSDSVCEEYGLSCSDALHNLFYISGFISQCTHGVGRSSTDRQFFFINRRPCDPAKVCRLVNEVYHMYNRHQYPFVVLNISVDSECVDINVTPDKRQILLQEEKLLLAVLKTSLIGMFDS

Target: recombinant N-terminal PMS2 (residues 1-365) (Homo sapiens, UniProt P54278)
Experiment: Fluorescence Polarisation Assay for PMS2 (displacement of fluorescent probe compound)
Conditions: read-out: PMS2 IC50, 10 nM N-terminal PMS2, 5 nM probe compound, pH 7.5, room temperature, 30 min pre-incubation then 1 hour
Description: Fluorescence Polarisation Assay for PMS2
Test compounds, as 10 mM DMSO stocks, were dispensed into a Black Fluotrac 200 384 well medium binding plate (Greiner Bio-One, item number 781076) using a Labcyte Echo acoustic liquid handler. For single point screening, test compounds were added to wells in columns 1-22 whilst DMSO was added to wells in columns 23 and 24 in order to normalise the plate. For potency determination, serial dilutions of test compounds were added to wells in columns 3-22 and DMSO volume was normalised across the plate.
20 μL of a 2× solution (20 nM) of recombinant N-terminal PMS2 (residues 1-365) in assay buffer (25 mM HEPES, pH 7.5, 250 mM NaCl, 10 mM MgCl2, 0.01% Triton X-100, 5 mM Dithiothreitol) was added to all wells in columns 2-23 for potency determination or columns 1-23 for single point screening. 20 μL assay buffer was added to all wells in columns 1 and 24 (column 24 only for single point screening) using a MultiDrop Combi (ThermoFisher). Plates were centrifuged for 1 minute at 250×g and were incubated at room temperature for 30 minutes prior to the addition of 20 μL of 2×(20 nM) of 5-((5-(4-((2-(2,4-dihydroxy-5-isopropylbenzoyl)isoindolin5-yl)methyl)piperazin-1-yl)pentyl)carbamoyl)-2-(6-(dimethylamino)-3-(dimethyliminio)-3H-xanthen-9-yl)benzoate (referred to hereinafter as “probe compound”) in assay buffer (prepared from a 100 μM DMSO stock) with a MultiDrop Combi (ThermoFisher). The final concentration of N-terminal PMS2 was 10 nM and the final concentration of probe compound was 5 nM.
Compound plates were centrifuged for 1 minute at 250×g for 1 minute and were incubated at room temperature for 1 hour before being read on a PheraStar FSX (fitted with 384-well aperture spoon and 540 590 590 FP optic module). The gain and focus were adjusted before each plate was read so that the polarisation of a no enzyme control (column 24) was equal to 35 mP. Data were normalised against the no inhibitor controls (column 23) and no enzyme controls (column 24).

| Structure (SMILES) | IC50 [nM] |
| --- | --- |
| CN(C)C/C=C/C(=O)N(Cc1ccccc1)c1cccc2c1CN(C(=O)c1ccc(O)cc1O)C2 | 100 to 1000 |
| COc1cc(O)ccc1C(=O)N1Cc2cccc(NC(=O)/C=C/CN(C)C)c2C1 | > 1000 |
| C=CC(=O)N(C)c1ccc2c(c1)CN(C(=O)c1cc(Cl)c(OC)cc1O)CC2 | 100 to 1000 |
| COc1cc(O)c(C(=O)N2CCc3ccc(N(C)C(=O)/C=C/CN(C)C)cc3C2)cc1C(C)C | 100 to 1000 |
| Cc1c[nH]c2cc(O)c(C(=O)N3Cc4cccc(N(C)C(=O)/C=C/CN(C)C)c4C3)cc12 | 100 to 1000 |
| COc1ccc(C(=O)N2Cc3cccc(NC(=O)/C=C/CN(C)C)c3C2)c(O)c1 | > 1000 |
| C=CC(=O)N(C)c1cccc2c1CN(C(=O)c1c(O)c(CN)cc(C(C)(C)C)c1F)C2 | > 1000 |
| C=CC(=O)N(CCc1ccncc1)c1cccc2c1CN(C(=O)c1cc(C)c(O)cc1O)C2 | 100 to 1000 |
| COc1ccccc1C(=O)N1Cc2cccc(NC(=O)/C=C/CN(C)C)c2C1 | > 1000 |
| CN(C)C/C=C/C(=O)Nc1cccc2c1CN(C(=O)c1ccc(O)cc1Cl)C2 | > 1000 |
| COc1cc(O)c(C(=O)N2Cc3ccc(C)c(N(C)C(=O)/C=C/CN(C)C)c3C2)cc1Cl | > 1000 |
| CN(C)C/C=C/C(=O)N(C)c1ccc2c(c1)CN(C(=O)c1c(O)ccc(C(C)(C)C)c1F)CC2 | 100 to 1000 |
| Cc1c(C(=O)N2Cc3cccc(N(C)C(=O)/C=C/CN(C)C)c3C2)ccc(O)c1Cl | 100 to 1000 |
| CN(C)C/C=C/C(=O)Nc1cccc2c1CN(C(=O)c1cc3cn[nH]c3cc1O)C2 | > 1000 |
| Cc1cc(C(=O)N2Cc3cccc(NC(=O)/C=C/CN4CCC(F)(F)C4)c3C2)c(O)cc1O | 100 to 1000 |
| CN(C)C/C=C/C(=O)N(C)c1cccc2c1CN(C(=O)c1cc(C(C)(C)C)c(F)cc1O)C2 | > 1000 |
| C=CC(=O)N(C)c1cc2c(cc1Cl)CCN(C(=O)c1cc(C(C)C)c(OC)cc1O)C2 | 100 to 1000 |
| C=CC(=O)N(C)c1cccc2c1CN(C(=O)c1cc(C(C)(C)C)c(OC)cc1O)C2 | > 1000 |
| C=CC(=O)N(C)c1cccc2c1CN(C(=O)c1c(O)cc(OC)c(Cl)c1F)C2 | > 1000 |
| COc1cc(O)c(C(=O)N2Cc3ccc(Cl)c(N(C)C(=O)/C=C/CN(C)C)c3C2)cc1C(C)(C)C | 100 to 1000 |
| CN(C)C/C=C/C(=O)Nc1cccc2c1CN(C(=O)c1ccccc1)C2 | > 1000 |
| Cc1cc(C(=O)N2Cc3cccc(NC(=O)/C=C/CN4CCCC4)c3C2)c(O)cc1O | 100 to 1000 |
| CN(C)C/C=C/C(=O)N(C)c1cccc2c1CN(C(=O)c1ccc(O)c(C(F)(F)F)c1)C2 | > 1000 |
| COc1cc(O)c(C(=O)N2Cc3ccc(Cl)c(N(C)C(=O)/C=C/CN(C)C)c3C2)cc1C(C)C | 100 to 1000 |
| CN(C)C/C=C/C(=O)N(C)c1cnc2c(c1)CN(C(=O)c1cc(C(C)(C)C)ccc1O)CC2 | > 1000 |
| CC(C)c1cc(C(=O)N2Cc3cc(N(C)C(=O)/C=C/CN(C)C)ccc3CC2C)ccc1O (stereo not shown) | 100 to 1000 |

| Structure (SMILES) | IC50 [nM] |
| --- | --- |
| C=CC(=O)Nc1cnc2c(c1)CN(C(=O)c1c(O)cc(OC)c(Cl)c1C)CC2 | > 1000 |
| C/C=C/C(=O)N(C)c1cnc2c(c1)CN(C(=O)c1c(O)cc(OC)c(Cl)c1C)CC2 | > 1000 |
| C=CC(=O)N(C)c1ccc2c(c1)CN(C(=O)c1cc(C(C)C)c(F)cc1O)CC2 | > 1000 |
| C=CC(=O)N(C)c1cc2c(cc1C)CCN(C(=O)c1cc(C(C)C)c(F)cc1O)C2 | > 1000 |
| C=CC(=O)N(C)c1cccc2c1CN(C(=O)c1cc(C(C)C)c(OC)cc1O)C2 | > 1000 |
| COc1cc(O)c(C(=O)N2Cc3cccc(N(C)C(=O)/C=C/CN(C)C)c3C2)cc1C(C)(C)C | > 1000 |
| Cc1c(Cl)ccc(O)c1C(=O)N1Cc2cccc(N(C)C(=O)/C=C/CN(C)C)c2C1 | > 1000 |
| Cc1c(Cl)ccc(O)c1C(=O)N1CCc2ccc(N(C)C(=O)/C=C/CN(C)C)cc2C1 | > 1000 |
| CN(C)C/C=C/C(=O)Nc1cccc2c1CN(C(=O)c1ccc(O)cc1F)C2 | > 1000 |
| C=CC(=O)N(Cc1ccccc1)c1cccc2c1CN(C(=O)c1cc(C)c(O)cc1O)C2 | 100 to 1000 |
| COc1cc(O)c(C(=O)N2CCc3ccc(N(C)C(=O)/C=C/CN(C)C)cc3C2)c(C)c1Cl | 100 to 1000 |
| Cc1cc(C(=O)N2Cc3cccc(NC(=O)/C=C/CN4CCOCC4)c3C2)c(O)cc1O | 100 to 1000 |
| COC/C=C/C(=O)Nc1cccc2c1CN(C(=O)c1cc(C)c(O)cc1O)C2 | 100 to 1000 |
| CC(C)c1cc(C(=O)N2Cc3cccc(N(C)C(=O)/C=C/CN(C)C)c3C2)ccc1O | > 1000 |
| Cc1c(O)ccc(C(=O)N2Cc3cccc(N(C)C(=O)/C=C/CN(C)C)c3C2)c1C | 100 to 1000 |
| Cc1cc(C(=O)N2Cc3cccc(N4CCC(=CCN(C)C)C4=O)c3C2)c(O)cc1O (single isomer, unassigned) | > 1000 |
| CN(C)C/C=C/C(=O)Nc1cccc2c1CN(C(=O)c1ccc(O)cc1C(F)F)C2 | > 1000 |
| CN(C)C/C=C/C(=O)Nc1cccc2c1CN(C(=O)c1ccc(N)cc1O)C2 | > 1000 |
| Cc1cc(C(=O)N2Cc3cccc(NC(=O)/C=C/CN4CC(F)(F)C4)c3C2)c(O)cc1O | > 1000 |
| COc1cc(O)c(C(=O)N2Cc3cccc(N(C)C(=O)/C=C/CN(C)C)c3C2)cc1C | > 1000 |
| Cc1c(O)ccc(C(=O)N2Cc3ccc(Cl)c(NC(=O)/C=C/CN(C)C)c3C2)c1C | 100 to 1000 |
| CC(C)c1cc(C(=O)N2Cc3ccc(Cl)c(N(C)C(=O)/C=C/CN(C)C)c3C2)ccc1O | 100 to 1000 |
| Cc1cc(C(=O)N2CCc3ccc(NC(=O)/C=C/CN(C)C)cc3C2)c(O)cc1O | 100 to 1000 |
| Cc1cc(C(=O)N2Cc3cccc(NC(=O)/C=C/CN(C)C)c3C2)ccc1O | > 1000 |
| Cc1cc(O)cc(O)c1C(=O)N1CCc2ccc(NC(=O)/C=C/CN(C)C)cc2C1 | 100 to 1000 |

Results, then the compound that gave them:

| IC50 [nM] | Structure (SMILES) |
| --- | --- |
| 100 to 1000 | COc1cc(O)c(C(=O)N2CCc3nc(OC)c(N(C)C(=O)/C=C/CN(C)C)cc3C2)cc1C(C)C |
| < 100 | C=CC(=O)N(c1ccc2c(c1)CN(C(=O)c1cc(C(C)C)c(OC)cc1O)CC2)C1CCN(C)C1 (stereo not shown) |
| < 100 | Cc1c(O)cc(O)c(C(=O)N2Cc3cccc(NC(=O)/C=C/CN(C)C)c3C2)c1C |
| < 100 | CN(C)C/C=C/C(=O)Nc1cccc2c1CN(C(=O)c1cc(Cl)c(O)cc1O)C2 |
| < 100 | C=CC(=O)N(C)c1ccc2c(n1)CN(C(=O)c1c(O)cc(OC)c(Cl)c1C)CC2 |
| < 100 | Cc1cc(C(=O)N2Cc3cccc(N(Cc4ccccc4)C(=O)/C=C/CN(C)C)c3C2)c(O)cc1O |
| < 100 | C=CC(=O)N(C)c1ccc2c(c1)CN(C(=O)c1cc(Cl)c(O)cc1O)CC2 |
| < 100 | C=CC(=O)N(C)c1nc2c(cc1C)CCN(C(=O)c1cc(C(C)C)c(OC)cc1O)C2 |
| < 100 | Cc1cc(C(=O)N2Cc3cccc(N(CCc4ccccn4)C(=O)/C=C/CN(C)C)c3C2)c(O)cc1O |
| < 100 | Cc1cc(O)cc(O)c1C(=O)N1Cc2cccc(NC(=O)/C=C/CN(C)C)c2C1 |
| < 100 | C=CC(=O)N(CCOC)c1cccc2c1CN(C(=O)c1c(O)cc(O)c(C)c1C)C2 |
| < 100 | C=CC(=O)N(C)c1cc(OCCN(C)C)cc2c1CN(C(=O)c1cc(C)c(O)cc1O)C2 |
| < 100 | CN(C)C/C=C/C(=O)N(C)c1cccc2c1CN(C(=O)c1c(O)cc(O)cc1Cl)C2 |
| < 100 | Cc1c(Cl)c(O)cc(O)c1C(=O)N1Cc2cccc(N(C)C(=O)/C=C/CN(C)C)c2C1 |
| < 100 | Cc1c(O)cc(O)c(C(=O)N2Cc3cccc(N(C)C(=O)/C=C/CN(C)C)c3C2)c1C |
| < 100 | Cc1cc(C(=O)N2Cc3cccc(N(CCc4ccncc4)C(=O)/C=C/CN(C)C)c3C2)c(O)cc1O |
| < 100 | Cc1cc(C(=O)N2Cc3ccc(Cl)c(N(C)C(=O)/C=C/CN(C)C)c3C2)c(O)cc1O |
| < 100 | CCN(C(=O)/C=C/CN(C)C)c1cccc2c1CN(C(=O)c1c(O)cc(O)c(C)c1C)C2 |
| < 100 | C=CC(=O)N(C)c1nc2c(cc1C)CCN(C(=O)c1c(O)cc(OC)c(Cl)c1C)C2 |
| < 100 | C=CC(=O)N(C)c1ccc2c(c1)CN(C(=O)c1c(O)cc(OC)c(Cl)c1C)CC2 |
| < 100 | Cc1cc(C(=O)N2Cc3cccc(N(CCO)C(=O)/C=C/CN(C)C)c3C2)c(O)cc1O |
| < 100 | Cc1cc(C(=O)N2Cc3cccc(N(CCC4CCOCC4)C(=O)/C=C/CN(C)C)c3C2)c(O)cc1O |
| < 100 | CN(C)C/C=C/C(=O)N(C)c1c(Cl)ccc2c1CN(C(=O)c1cc(C(C)(C)C)c(O)cc1O)C2 |
| < 100 | CCc1cc(C(=O)N2Cc3cccc(NC(=O)/C=C/CN(C)C)c3C2)c(O)cc1O |
| < 100 | Cc1cc(C(=O)N2Cc3cccc(N(CCc4cccnc4)C(=O)/C=C/CN(C)C)c3C2)c(O)cc1O |
| < 100 | C=CC(=O)N(CC)c1cccc2c1CN(C(=O)c1c(O)cc(O)c(Cl)c1C)C2 |
| < 100 | Cc1cc(C(=O)N2CCc3ccc(N(C)C(=O)/C=C/CN(C)C)cc3C2)c(O)cc1O |
| < 100 | Cc1ccc2c(c1N(C)C(=O)/C=C/CN(C)C)CN(C(=O)c1c(O)cc(O)c(C)c1C)C2 |
